Protein sequences, listed by entry. Tags and fused reporters are not part of them.
UniProt P19643, whole entry: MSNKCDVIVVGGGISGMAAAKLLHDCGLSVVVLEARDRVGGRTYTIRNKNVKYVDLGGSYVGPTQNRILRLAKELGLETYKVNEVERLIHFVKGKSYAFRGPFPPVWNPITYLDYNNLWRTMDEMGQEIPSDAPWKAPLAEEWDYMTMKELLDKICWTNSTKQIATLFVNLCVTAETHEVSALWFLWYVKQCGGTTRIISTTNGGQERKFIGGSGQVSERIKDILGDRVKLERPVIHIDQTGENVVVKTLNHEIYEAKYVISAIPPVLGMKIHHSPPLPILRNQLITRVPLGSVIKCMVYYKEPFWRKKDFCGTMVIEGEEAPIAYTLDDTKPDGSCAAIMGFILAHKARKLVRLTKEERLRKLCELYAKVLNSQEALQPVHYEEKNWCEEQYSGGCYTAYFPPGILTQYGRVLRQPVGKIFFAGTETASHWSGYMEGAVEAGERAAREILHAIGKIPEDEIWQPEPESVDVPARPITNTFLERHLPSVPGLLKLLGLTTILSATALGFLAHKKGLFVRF

According to patent publication US4764522A, “Ethylenediamine monoamides” (Hoffmann-La Roche Inc., priority 1984, dated 1988):

Target: T1, monoamine oxidase (MAO) (Rattus norvegicus, UniProt P19643)
T1 construct: from tissue; host or cells: rat brain homogenate (ex vivo, two hours after p.o. dosing)
Experiment: MAO inhibiting activity measured in homogenates of the brain two hours after p.o. administration to rats (phenethylamine as substrate)
Format: in vivo
Settings: po, 2 h, read-out: ED50 (MAO inhibiting activity)
Experimental: The MAO inhibiting activity of the compounds in accordance with the invention can be determined using standard methods. Thus, the substances to be tested were administered p.o. to rats.

`Cl.NCCNC(=O)c1ccc(Cl)cn1` [N-(2-aminoethyl)-5-chloropyridine-2-carboxamide hydrochloride] was tested, and the ED50 was 0.161 µmol/kg.
